Data taken from ChEMBL document CHEMBL1132549, “Design and structure-activity relationship of a new class of potent VEGF receptor tyrosine kinase inhibitors” (J Med Chem, 1999).
pIC50: −log10 of the molar value.

Amino acid sequences for entries named in this document (tags omitted).
UniProt P17948, whole entry: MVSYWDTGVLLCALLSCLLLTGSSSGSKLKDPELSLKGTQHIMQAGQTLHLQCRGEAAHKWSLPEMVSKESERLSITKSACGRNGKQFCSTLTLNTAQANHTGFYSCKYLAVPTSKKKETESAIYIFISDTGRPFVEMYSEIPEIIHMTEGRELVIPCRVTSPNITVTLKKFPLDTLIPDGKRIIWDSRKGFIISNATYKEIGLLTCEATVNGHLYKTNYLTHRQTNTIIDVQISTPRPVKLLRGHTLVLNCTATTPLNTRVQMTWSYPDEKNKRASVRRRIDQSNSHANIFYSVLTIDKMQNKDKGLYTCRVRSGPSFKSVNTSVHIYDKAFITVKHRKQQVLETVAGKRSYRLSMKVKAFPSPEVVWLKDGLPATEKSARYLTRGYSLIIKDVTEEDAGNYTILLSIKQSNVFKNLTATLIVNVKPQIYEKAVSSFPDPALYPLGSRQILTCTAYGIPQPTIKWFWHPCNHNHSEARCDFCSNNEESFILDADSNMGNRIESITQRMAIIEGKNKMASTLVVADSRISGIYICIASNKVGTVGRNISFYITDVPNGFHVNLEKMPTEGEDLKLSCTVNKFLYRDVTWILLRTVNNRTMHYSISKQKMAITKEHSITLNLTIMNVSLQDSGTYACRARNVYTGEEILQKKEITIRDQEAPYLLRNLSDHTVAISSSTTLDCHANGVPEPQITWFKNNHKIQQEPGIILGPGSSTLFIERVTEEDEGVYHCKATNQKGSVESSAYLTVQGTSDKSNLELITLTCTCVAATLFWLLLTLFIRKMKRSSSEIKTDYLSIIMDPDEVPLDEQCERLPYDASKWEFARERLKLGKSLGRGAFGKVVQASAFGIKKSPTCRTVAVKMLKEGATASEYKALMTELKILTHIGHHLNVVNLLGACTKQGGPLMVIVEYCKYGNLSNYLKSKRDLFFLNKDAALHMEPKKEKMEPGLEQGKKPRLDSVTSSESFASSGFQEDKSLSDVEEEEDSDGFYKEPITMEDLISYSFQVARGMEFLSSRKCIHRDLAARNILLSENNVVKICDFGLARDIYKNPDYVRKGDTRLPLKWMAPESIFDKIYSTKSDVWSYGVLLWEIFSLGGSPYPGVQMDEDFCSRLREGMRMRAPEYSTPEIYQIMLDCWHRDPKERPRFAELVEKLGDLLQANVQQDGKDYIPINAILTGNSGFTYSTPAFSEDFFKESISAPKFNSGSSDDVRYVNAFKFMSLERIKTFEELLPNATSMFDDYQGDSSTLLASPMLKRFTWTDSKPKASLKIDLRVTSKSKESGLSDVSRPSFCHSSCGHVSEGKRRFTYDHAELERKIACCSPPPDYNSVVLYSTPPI

Target: Vascular endothelial growth factor receptor 1 (Homo sapiens, UniProt P17948)

pIC50: 6.70
SMILES: COc1cc2c(Nc3ccc(Cl)cc3F)ncnc2cc1OCCCN1CCOCC1
